As usually defined, the IC50 is the concentration needed to halve the response being measured.

One series concerns Plasmodium falciparum. The series is described as follows: microbe, parasite or virus in culture. In kind it is functional, organism-based. To be noted: NF54, 72 h.
`CN(C)c1ccc(C(=O)N(CC(=O)NC(C)(C)C)Cc2ccc(C(=O)NO)cc2)cc1` came in with a concentration for half-maximal inhibition (IC50) of 4.41 µM.

In turn, `Cc1cc(C)cc(C(=O)N(CC(=O)NC2CCCCC2)Cc2ccc(C(=O)NO)cc2)c1` yielded a half-maximal inhibitory concentration (IC50) of 8.37 µM.

Molecule `Cc1ccc(NC(=O)CN(Cc2ccc(C(=O)NO)cc2)C(=O)c2ccc(N(C)C)cc2)cc1` came in with an IC50 of 5.9 µM.

Molecule `CN(C)c1ccc(C(=O)N(CC(=O)NC2CCCCC2)Cc2ccc(C(=O)NO)cc2)cc1` returned an IC50 of 2.36 µM.

The next series relates to Plasmodium falciparum. The series is described as follows: Gametocytocidal activity against transgenic GFP-fused Plasmodium falciparum NF54 late stage gametocytes after 72 hrs by Mitotracker Red CMH2XRos staining based imaging method. In kind it is functional, organism-based. Conditions: NF54, 72 h.
`CN(C)c1ccc(C(=O)N(CC(=O)NC(C)(C)C)Cc2ccc(C(=O)NO)cc2)cc1` displayed an IC50 of 2.72 µM.

Molecule `Cc1cc(C)cc(C(=O)N(CC(=O)NC2CCCCC2)Cc2ccc(C(=O)NO)cc2)c1` registered a half-inhibitory concentration (IC50) of 5.25 µM. This IC50 is about 1.9-fold higher than that of the molecule before.

In the case of `Cc1ccc(NC(=O)CN(Cc2ccc(C(=O)NO)cc2)C(=O)c2ccc(N(C)C)cc2)cc1`, the IC50 was 3.89 µM.

As for `CN(C)c1ccc(C(=O)N(CC(=O)NC2CCCCC2)Cc2ccc(C(=O)NO)cc2)cc1`, half-maximal inhibition (IC50) required 1.81 µM.

The subject of a further series is Plasmodium falciparum. As to the kind of experiment: microbe, parasite or virus in culture. In kind it is functional, organism-based. To be noted: NF54, 48 h.
In turn, `Cc1ccc(C(=O)N(CC(=O)NC2CCCCC2)Cc2ccc(C(=O)NO)cc2)cc1C` yielded an IC50 of 13.1 µM.

`CC(C)c1ccc(C(=O)N(CC(=O)NC2CCCCC2)Cc2ccc(C(=O)NO)cc2)cc1` registered an IC50 of 7.74 µM.

As for `CN(C)c1ccc(C(=O)N(CC(=O)NC(C)(C)C)Cc2ccc(C(=O)NO)cc2)cc1`, the half-maximal inhibitory concentration (IC50) was 7.69 µM. This IC50 and that of the molecule before are within 1.5-fold of each other.

For `Cc1cc(C)cc(C(=O)N(CC(=O)NC2CCCCC2)Cc2ccc(C(=O)NO)cc2)c1`, the IC50 was 15.7 µM.

Molecule `Cc1ccc(NC(=O)CN(Cc2ccc(C(=O)NO)cc2)C(=O)c2ccc(N(C)C)cc2)cc1` yielded an IC50 of 4.35 µM. Compared with the last molecule, the IC50 is about 3.6-fold lower.

On to `Cc1ccc(NC(=O)CN(Cc2ccc(C(=O)NO)cc2)C(=O)c2ccccc2)cc1`, for which 9.41 µM corresponded to half-maximal inhibition (IC50).

`CN(C)c1ccc(C(=O)N(CC(=O)NC2CCCCC2)Cc2ccc(C(=O)NO)cc2)cc1` displayed an IC50 of 2.46 µM.

`CC1=C[C@@H](C)[C@H]2[C@@H]3C(=O)C(Cl)(Cl)C(=O)[C@H](C)C(=O)O[C@@H](C)/C=C/C=C\[C@@H](C)[C@@H]3C=C[C@@H]2C1` displayed an IC50 of 0.041 µM.

The subject of the next series is NFF. As to the kind of experiment: cells. Conditions: Homo sapiens.
Regarding `Cc1ccc(C(=O)N(CC(=O)NC2CCCCC2)Cc2ccc(C(=O)NO)cc2)cc1C`, the IC50 is > 10 µM.

Take `O=C(CN(Cc1ccc(C(=O)NO)cc1)C(=O)c1cccc2ccccc12)NC1CCCCC1`: the IC50 was > 10 µM.

As to `CC(C)c1ccc(C(=O)N(CC(=O)NC2CCCCC2)Cc2ccc(C(=O)NO)cc2)cc1`, the IC50 was > 4 µM.

As to `O=C(CN(Cc1ccc(C(=O)NO)cc1)C(=O)c1ccccc1)NC1CCCCC1`, the IC50 was > 10 µM.

For `Cc1cc(C)cc(C(=O)N(CC(=O)NC(C)(C)C)Cc2ccc(C(=O)NO)cc2)c1`, the IC50 was > 10 µM.

Consider `Cc1cccc(C(=O)N(CC(=O)NC2CCCCC2)Cc2ccc(C(=O)NO)cc2)c1`, for which the IC50 is > 10 µM.

In the case of `CN(C)c1ccc(C(=O)N(CC(=O)NC(C)(C)C)Cc2ccc(C(=O)NO)cc2)cc1`, the IC50 was found to be 4.48 µM.

For the molecule `Cc1cc(C)cc(C(=O)N(CC(=O)NC2CCCCC2)Cc2ccc(C(=O)NO)cc2)c1`, the IC50 was > 10 µM.

In the case of `Cc1ccc(NC(=O)CN(Cc2ccc(C(=O)NO)cc2)C(=O)c2ccc(N(C)C)cc2)cc1`, the IC50 stood at 5.38 µM.

Regarding `Cc1ccc(NC(=O)CN(Cc2ccc(C(=O)NO)cc2)C(=O)c2ccccc2)cc1`, the IC50 is > 10 µM.

Molecule `CN(C)c1ccc(C(=O)N(CC(=O)NC2CCCCC2)Cc2ccc(C(=O)NO)cc2)cc1` showed an IC50 of 5.89 µM. This counts as single-digit micromolar.

Tested on in another series: not listed separately
As to the kind of experiment: cells. Conditions: Homo sapiens, HepG2A16, 48 h.
On to `Cc1ccc(C(=O)N(CC(=O)NC2CCCCC2)Cc2ccc(C(=O)NO)cc2)cc1C`, for which it took 22 µM to reach half-maximal inhibition (IC50).

Turning to `O=C(CN(Cc1ccc(C(=O)NO)cc1)C(=O)c1cccc2ccccc12)NC1CCCCC1`, the IC50 is > 50 µM.

The molecule `CC(C)c1ccc(C(=O)N(CC(=O)NC2CCCCC2)Cc2ccc(C(=O)NO)cc2)cc1` returned an IC50 of 9.99 µM. That is a single-digit micromolar value.

`CN(C)c1ccc(C(=O)N(CC(=O)NC(C)(C)C)Cc2ccc(C(=O)NO)cc2)cc1`: the IC50 was determined as 11.9 µM.

Turning to `Cc1cc(C)cc(C(=O)N(CC(=O)NC2CCCCC2)Cc2ccc(C(=O)NO)cc2)c1`, the IC50 was determined as 21.2 µM.

The molecule `Cc1ccc(NC(=O)CN(Cc2ccc(C(=O)NO)cc2)C(=O)c2ccc(N(C)C)cc2)cc1` displayed an IC50 of 5.81 µM.

As to `CN(C)c1ccc(C(=O)N(CC(=O)NC2CCCCC2)Cc2ccc(C(=O)NO)cc2)cc1`, the IC50 was 7.8 µM.

Tested on in another series: not listed separately
As to the kind of experiment: in vitro. To be noted: human, erythrocytes.
`O=C(CN(Cc1ccc(C(=O)NO)cc1)C(=O)c1ccccc1)NC1CCCCC1`: the selectivity ratio lay within 85 to 169.

Consider `Cc1cc(C)cc(C(=O)N(CC(=O)NC(C)(C)C)Cc2ccc(C(=O)NO)cc2)c1`, for which the selectivity ratio is 200 to 244.

`Cc1cccc(C(=O)N(CC(=O)NC2CCCCC2)Cc2ccc(C(=O)NO)cc2)c1`: the selectivity ratio lay in the range of 208 to 233.

For the molecule `Cc1ccc(NC(=O)CN(Cc2ccc(C(=O)NO)cc2)C(=O)c2ccccc2)cc1`, the selectivity ratio lay in the range of 149 to 189.

Tested on in the next series: not listed separately
The series is described as follows: in vitro. To be noted: human, erythrocytes. This is another data set of the same source.
With `O=C(CN(Cc1ccc(C(=O)NO)cc1)C(=O)c1ccccc1)NC1CCCCC1`, the selectivity ratio is 85 to 169.

For the molecule `Cc1cc(C)cc(C(=O)N(CC(=O)NC(C)(C)C)Cc2ccc(C(=O)NO)cc2)c1`, the selectivity ratio was in the range of 200 to 244.

In the case of `Cc1cccc(C(=O)N(CC(=O)NC2CCCCC2)Cc2ccc(C(=O)NO)cc2)c1`, the selectivity ratio fell in the range of 208 to 233.

As to `Cc1ccc(NC(=O)CN(Cc2ccc(C(=O)NO)cc2)C(=O)c2ccccc2)cc1`, the selectivity ratio was 149 to 189.

A further series concerns Plasmodium falciparum. As to the kind of experiment: microbe, parasite or virus in culture. To be noted: 3D7, 3 h.
Take `CC(C)c1ccc(C(=O)N(CC(=O)NC2CCCCC2)Cc2ccc(C(=O)NO)cc2)cc1`: the IC50 is 0.004 µM.

In the case of `O=C(CN(Cc1ccc(C(=O)NO)cc1)C(=O)c1ccccc1)NC1CCCCC1`, the IC50 worked out at 0.059 µM.

The molecule `Cc1cc(C)cc(C(=O)N(CC(=O)NC(C)(C)C)Cc2ccc(C(=O)NO)cc2)c1` returned an IC50 of 0.05 µM.

In turn, `Cc1cccc(C(=O)N(CC(=O)NC2CCCCC2)Cc2ccc(C(=O)NO)cc2)c1` returned an IC50 of 0.043 µM. This IC50 and that of the molecule before are within 1.5-fold of each other.

`CN(C)c1ccc(C(=O)N(CC(=O)NC(C)(C)C)Cc2ccc(C(=O)NO)cc2)cc1` registered an IC50 of 0.011 µM.

`Cc1cc(C)cc(C(=O)N(CC(=O)NC2CCCCC2)Cc2ccc(C(=O)NO)cc2)c1`: the IC50 came to 0.021 µM.

`Cc1ccc(NC(=O)CN(Cc2ccc(C(=O)NO)cc2)C(=O)c2ccccc2)cc1` gave a half-maximal inhibitory concentration (IC50) of 0.067 µM.

As to `CN(C)c1ccc(C(=O)N(CC(=O)NC2CCCCC2)Cc2ccc(C(=O)NO)cc2)cc1`, the IC50 turned out to be 0.009 µM.

For another series, the system named is Plasmodium falciparum. The series is described as follows: microbe, parasite or virus in culture. To be noted: Dd2, 3 h.
In turn, `Cc1ccc(C(=O)N(CC(=O)NC2CCCCC2)Cc2ccc(C(=O)NO)cc2)cc1C` gave an IC50 of 0.021 µM.

Take `CC(C)c1ccc(C(=O)N(CC(=O)NC2CCCCC2)Cc2ccc(C(=O)NO)cc2)cc1`: the IC50 came to 0.001 µM. This IC50 is about 21-fold lower than that of the molecule before.

In the case of `O=C(CN(Cc1ccc(C(=O)NO)cc1)C(=O)c1ccccc1)NC1CCCCC1`, the IC50 is 0.118 µM.

Molecule `Cc1cc(C)cc(C(=O)N(CC(=O)NC(C)(C)C)Cc2ccc(C(=O)NO)cc2)c1` displayed an IC50 of 0.041 µM.

On to `Cc1cccc(C(=O)N(CC(=O)NC2CCCCC2)Cc2ccc(C(=O)NO)cc2)c1`, for which the IC50 is 0.048 µM.

Regarding `CN(C)c1ccc(C(=O)N(CC(=O)NC(C)(C)C)Cc2ccc(C(=O)NO)cc2)cc1`, inhibition was half-maximal at 0.014 µM (IC50).

Molecule `Cc1cc(C)cc(C(=O)N(CC(=O)NC2CCCCC2)Cc2ccc(C(=O)NO)cc2)c1` came in with an IC50 of 0.033 µM.

The molecule `Cc1ccc(NC(=O)CN(Cc2ccc(C(=O)NO)cc2)C(=O)c2ccc(N(C)C)cc2)cc1` returned an IC50 of 0.02 µM.

The molecule `Cc1ccc(NC(=O)CN(Cc2ccc(C(=O)NO)cc2)C(=O)c2ccccc2)cc1` displayed an IC50 of 0.053 µM.

With `CN(C)c1ccc(C(=O)N(CC(=O)NC2CCCCC2)Cc2ccc(C(=O)NO)cc2)cc1`, the IC50 came to 0.015 µM. This IC50 is about 3.5-fold lower than that of the molecule before.

The values are drawn from ChEMBL document CHEMBL4265952, “One-pot, multi-component synthesis and structure-activity relationships of peptoid-based histone deacetylase (HDAC) inhibitors targeting malaria parasites” (Eur J Med Chem, 2018).
